Assay results published in US20240417395A1, “DUAL ANTAGONIST AND USE THEREOF” (NICOYA THERAPEUTICS (SHANGHAI) CO., LTD, priority 2021, published 2024).

The chains behind the UniProt entries cited, without tags or fusion partners. Residues count along the entry.
UniProt P25101, 21-427 limits assumed: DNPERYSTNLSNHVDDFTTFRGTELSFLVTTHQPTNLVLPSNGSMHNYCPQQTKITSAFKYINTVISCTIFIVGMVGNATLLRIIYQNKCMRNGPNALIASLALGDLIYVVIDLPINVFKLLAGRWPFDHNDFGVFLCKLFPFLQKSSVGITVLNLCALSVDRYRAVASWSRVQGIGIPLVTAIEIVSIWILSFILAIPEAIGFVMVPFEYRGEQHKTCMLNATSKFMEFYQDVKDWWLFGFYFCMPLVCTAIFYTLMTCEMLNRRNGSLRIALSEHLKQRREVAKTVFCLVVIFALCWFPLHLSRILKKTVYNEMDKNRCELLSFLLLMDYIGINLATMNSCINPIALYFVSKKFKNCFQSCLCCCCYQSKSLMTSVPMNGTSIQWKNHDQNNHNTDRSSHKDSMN

What was measured:
AT1 = AT1 (Homo sapiens (Human), UniProt P30556); assay: Calcium flux assay on AT1 cell line; format: cell-based; details: AT1/HEK293, calcium flux, angiotensin II agonist
ETa = ETa (Homo sapiens (Human), UniProt P25101); assay: Calcium flux assay on ETa cell line; details: ETa/HEK293, calcium flux, endothelin-1 agonist
[1] = Experiment on water solubility (HPLC-UV); format: physicochemical
[2] = read-out: IC50 activity against AT1 (class)
[3] = read-out: IC50 activity against ETa (class)

Solubility FaSSGF (pH1.6) ([1]; FaSSGF (pH1.6)) [mg/mL]	Solubility FaSSIF (pH6.5) ([1]; FaSSIF (pH6.5)) [mg/mL]	Solubility FeSSIF (pH5.0) ([1]; FeSSIF (pH5.0)) [mg/mL]	Solubility pH7.4 ([1]; pH7.4) [mg/mL]	SMILES	IC50 (AT1; [2]) [nM]	IC50 (AT1; read-out: IC50 against AT1) [nM]	IC50 (ETa; [3]) [nM]	IC50 (ETa; read-out: IC50 against ETa) [nM]
–	–	–	–	CCCCc1nn(C2CC2)c(=O)n1Cc1ccc(-c2ccccc2S(=O)(=O)Nc2noc(C)c2C)c(COCC)c1	1 to 10	6.14	10 to 100	23.6
0.12	0.19	0.06	0.41	CCCCC1=N[C@@]2(C[C@H]3C[C@H]3C2)C(=O)N1Cc1ccc(-c2ccccc2S(=O)(=O)Nc2noc(C)c2C)c(CN(C)C(=O)CC(C)(C)C)c1 (relative stereo)	10 to 100	26.8	10 to 100	14.8

Read-outs that look alike come from different tables or passages of the source.
